Earlier results as cited in patent US8067243B2 (priority 2008, dated 2011).
Only a part of the results on these compounds is given; other tests are left out.

Legend:
[1] = single fentanyl dose (50 to 100 ug); cited from earlier work
[2] = fentanyl transdermal patches (25 to 100 ug/hr); cited from earlier work

For `CCC(=O)N(c1ccccc1)C1CCN(CCc2ccccc2)CC1`, the “detection in urine following a single fentanyl dose” value [1] is listed as “less than 24 hours” and the “urine concentration in chronic pain patients” value [2] is listed as “less than 1080 ng/mL”.
